Source: US9695481B2, “Polynucleotides comprising a reporter sequence operatively linked to a regulatory element” (UNIVERSITEIT LEIDEN, priority 2010, dated 2017)

Assays:
[1] = system: Bscl2-GFP and Srxn1-GFP mES reporter cells
[2] = cited from earlier work
[3] = system: mouse ES cell lines containing a DsRed fluorescent reporter; details: cited from earlier work

## n-butyl chloride
[1]
  Bscl2-GFP/Srxn1-GFP GFP Induction: Neg.

## Tert-butyl alcohol
[1]
  Bscl2-GFP/Srxn1-GFP GFP Induction: Neg.
[2]
  In vivo genotoxicity: Neg.
[3]
  mES DsRed reporters: Neg.
